Experimental data taken from ChEMBL document CHEMBL3621148, “Structure-Based Design of Human TLR8-Specific Agonists with Augmented Potency and Adjuvanticity” (J Med Chem, 2015).
Calls of active or inactive are those of the source. The rule behind the calls is not given here.

Experiments:
[1] = target: T1, Toll-like receptor 8 (Homo sapiens) (UniProt Q9NR97); assay: Agonist activity at TLR8 in human whole blood assessed as up regulation of CD40 in CD 14+ monocytes after 16 hrs by eight-color flow cytometry
T1 sequence (whole entry): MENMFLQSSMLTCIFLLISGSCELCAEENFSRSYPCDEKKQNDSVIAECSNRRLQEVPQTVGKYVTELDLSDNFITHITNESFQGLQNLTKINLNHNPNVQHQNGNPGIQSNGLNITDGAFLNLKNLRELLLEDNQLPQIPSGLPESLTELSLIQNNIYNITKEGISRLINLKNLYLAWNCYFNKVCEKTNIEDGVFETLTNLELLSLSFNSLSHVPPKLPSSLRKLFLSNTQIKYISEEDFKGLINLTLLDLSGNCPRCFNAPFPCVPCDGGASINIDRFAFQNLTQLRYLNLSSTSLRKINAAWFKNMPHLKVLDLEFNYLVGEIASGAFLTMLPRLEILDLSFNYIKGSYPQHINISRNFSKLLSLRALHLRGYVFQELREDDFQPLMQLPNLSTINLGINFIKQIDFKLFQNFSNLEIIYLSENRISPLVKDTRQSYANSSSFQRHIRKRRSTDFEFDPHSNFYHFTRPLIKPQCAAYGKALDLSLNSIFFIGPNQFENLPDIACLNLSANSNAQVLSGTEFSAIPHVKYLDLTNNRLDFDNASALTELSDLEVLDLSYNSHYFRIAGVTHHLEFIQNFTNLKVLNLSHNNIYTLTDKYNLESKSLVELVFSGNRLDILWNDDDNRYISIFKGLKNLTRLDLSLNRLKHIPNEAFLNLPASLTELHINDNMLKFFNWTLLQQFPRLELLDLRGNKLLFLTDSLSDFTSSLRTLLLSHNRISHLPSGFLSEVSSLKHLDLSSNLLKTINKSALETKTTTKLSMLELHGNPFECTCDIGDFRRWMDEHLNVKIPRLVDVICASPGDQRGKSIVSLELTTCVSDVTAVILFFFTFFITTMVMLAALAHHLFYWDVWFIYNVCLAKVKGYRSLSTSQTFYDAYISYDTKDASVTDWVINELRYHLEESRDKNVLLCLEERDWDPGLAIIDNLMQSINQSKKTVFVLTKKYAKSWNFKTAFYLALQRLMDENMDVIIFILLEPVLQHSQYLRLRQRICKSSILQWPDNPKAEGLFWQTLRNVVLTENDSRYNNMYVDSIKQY

Oryctolagus cuniculus = assay: Adjuvanticity activity in New Zealand white rabbit immunized with CRM197 on days 1, 15 and 28 assessed as final test-bleed measured on day 38 at 100 ug, im by ELISA relative to unadjuvanted control
Toll-like receptor 8 = target: T2, Toll-like receptor 8 (Homo sapiens, UniProt Q9NR97)
T2 sequence (Q9NR97 whole entry): T1 sequence (whole entry)

[2] = target: T1, Toll-like receptor 8 (Homo sapiens); assay: Agonist activity at TLR8 in human whole blood assessed as up regulation of CD80 in CD 14+ monocytes after 16 hrs by eight-color flow cytometry
[3] = target: T1, Toll-like receptor 8 (Homo sapiens); assay: Agonist activity at TLR8 in human PBMC assessed as induction of TNF-alpha after 12 hrs by cytokine/chemokine bead array assay
[4] = target: T1, Toll-like receptor 8 (Homo sapiens); assay: Agonist activity at TLR8 in human PBMC assessed as induction of IFN-gamma after 12 hrs by cytokine/chemokine bead array assay
[5] = target: T1, Toll-like receptor 8 (Homo sapiens); assay: Agonist activity at TLR8 in human PBMC assessed as induction of IL-12p40 after 12 hrs by cytokine/chemokine bead array assay

Question: How did the Activity [1] turn out when `CCCCc1nc2c(N)nc3ccccc3c2n1Cc1ccc(CN)cc1` was run?
Answer: Its Activity is “Active”.

Question: `CCCCCc1cc2ccccc2nc1N` was tested. Which Activity (Oryctolagus cuniculus) did it give?
Answer: Its Activity is “Active”.

Question: Which EC50 (Toll-like receptor 8) does the source give for `CCCCc1nc2c(N)nc3ccccc3c2n1Cc1cccc(CN)c1` here?
Answer: The EC50 was 14 nM.

Question: Which results are given for `CCCCCc1cc2c(CCCCCN)cccc2nc1N`?
Answer: Activity [2]: Active; Activity [3]: Active; Activity [1]: Active; Activity [4]: Active; Activity [5]: Active; Activity (Oryctolagus cuniculus): Active

Question: How did the Activity (Oryctolagus cuniculus) turn out when `CCCCc1cc2c(o1)c(N)nc1ccccc12` was run?
Answer: The Activity was “Active”.
